Patent US10759863B2, “Modulation of γδ T cells” (Sanford Burnham Prebys Medical Discovery Institute, priority 2013, dated 2020)

Tested on: BTLA expression in γδT cells and ILCs
Assay: Cytokine-induced BTLA expression in cultured iLN γδT cells and PP ILCs
Type: cell-based
Details: iLN lymphocytes of Rorc(t)gfp/+ mice enriched for CD27− γδT cells; FIG. 17A
Method: Surface staining was performed on ice for 20-30 min. Intracellular staining was performed using the BD Cytofix/Cytoperm™ Kit according the manufacturer's instructions (BD Biosciences). Stained cells were acquired using a BD LSRFortessa™ equipped with 4 lasers (blue at 488 nm, yellow-green at 561 nm, red at 640 nm, violet at 405 nm). Antibodies in SI.
For IL-7 induced expansion iLN lymphocytes were cultured in RF10 media (RPMI+10% FBS, p/s, L-Glutamine) at 10^7/ml in 12-well plates for four days. For IL-7 induced BTLA expression iLN or PP lymphocytes were enriched for ILCs and CD27^− γδT cells and cultured in RF10 media in 24-well plates containing feeder adherent cells for two days. Following enrichment, cells from 3 animals were cultured in 1 ml in a single well. IL-7 (R&D Systems, Minneapolis, Minn.) was added at 10 ng/ml. For IL-17 and TNF production whole lymph node cells were cultured with or without 10 ng/ml IL-7 for 18 hours and then re-stimulated with PMA (50 ng/ml), ionomycin (750 ng/ml) and Golgi Stop™ (BD Biosciences) for 3.5 hours. TH17 differentiation was performed by isolating CD4^+ T cells from spleens and culturing in anti-CD3 (5 μg/ml) coated 24-well plates at 1.35×10^6/ml with anti-CD28 (2 μg/ml), IL-6 (20 ng/ml) and TGFβ1 (2 ng/ml). At day 5, cells were washed and re-stimulated with PMA+ionomycin and Golgi Stop™ (BD Biosciences) for 3.5 hours. […]

Substance: IL-2: activating cytokine
- BTLA induction in RORγt+ γδT cells after culture with activating cytokines: induced
